Assay results taken from patent US20220389394A1 (Gilead, published 2022).

By UniProt entry, the sequences of proteins in these tests, tags left out. Residues count along the entry.
UniProt P55899, 24-297 limits assumed, chain 1 of 2: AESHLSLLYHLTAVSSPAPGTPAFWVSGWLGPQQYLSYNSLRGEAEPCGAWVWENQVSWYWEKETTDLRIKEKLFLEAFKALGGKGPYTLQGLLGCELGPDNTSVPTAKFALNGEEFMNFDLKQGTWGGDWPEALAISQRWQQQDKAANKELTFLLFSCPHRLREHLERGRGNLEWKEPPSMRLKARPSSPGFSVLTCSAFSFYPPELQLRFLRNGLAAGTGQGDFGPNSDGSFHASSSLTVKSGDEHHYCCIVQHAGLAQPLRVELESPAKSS

How the values were obtained:
[1] = biological target: T1, recombinant human FcRn (human, UniProt P55899, in part; P61769, in part); assay: ELISA; recombinant human FcRn coated, serially diluted test article, anti-human (H+L)-HRP, 4PL fit; estimate, no saturating signal
T1 construct: a beta-2-microglobulin chain is not mentioned; also called human recombinant FcRn
Procedure: Graph is a result of one experiment. Experiment was performed in duplicate. Error bars represent standard deviation of the mean values.
Signal was developed using TMB substrate then quenched prior to reading absorbance at 450-650 nm on a SpectraMax plate reader.

[2] = biological target: T2, recombinant human C1q protein (Fitzgerald) (human); assay: ELISA, test article immobilized, C1q added; text: devoid of C1q binding ability
T2 construct: also called human recombinant complement protein, C1q

- EC50 [1]: ~183 nM
B1: human FLT3-ligand human IgG4 (S228P/L235E) fusion protein (SEQ ID NO:3) (Fc fusion)
chain: TQDCSFQHSPISSDFAVKIRELSDYLLQDYPVTVASNLQDEELCGGLWRLVLAQRWMERLKTVAGSKMQGLLERVNTEIHFVTKCAFQPPPSCLRFVQTNISRLLQETSEQLVALKPWITRQNFSRCLELQCQPDSSTLPPPWSPRPLEATAPTAPQESKYGPPCPPCPAPEFEGGPSVFLFPPKPKDTLMISRTPEVTCVVVDVSQEDPEVQFNWYVDGVEVHNAKTKPREEQFNSTYRVVSVLTVLHQDWLNGKEYKCKVSNKGLPSSIEKTISKAKGQPREPQVYTLPPSQEEMTKNQVSLTCLVKGFYPSDIAVEWESNGQPENNYKTTPPVLDSDGSFFLYSRLTVDKSRWQEGNVFSCSVMHEALHNHYTQKSLSLSLGK
notes: also called FLT3L ECD - hG4 S228P/L235E
- binding result [2]: no binding (tested: 94 nM (highest of the titration))
